# Values quoted from earlier work as cited in patent publication US20210379021A1 (Race Oncology Ltd., priority 2018, published 2021).
# Settings: human, in vivo; cited from earlier work
compound,measurement,value
"C(=N\NC1=NCCN1)/c1c2ccccc2c(/C=N/NC2=NCCN2)c2ccccc12 [bisantrene, 9,10-anthracenedicarboxaldehyde-bis [(4,5-dihydro-1H-imidazole-2-yl) hydrazine] dihydrochloride]",vesicant action if extravasated,potent vesicant

# Structures can show the parent of a compound that is named as a salt.
